# Test results: patent US20110183889A1, “SALICYLANILIDE MODIFIED PEPTIDES FOR USE AS ORAL THERAPEUTICS” (The Regents of the University of California, priority 2007, published 2011)
# Test system: LDL-induced monocyte chemotactic activity in cultures of human aortic endothelial cells
# Test: HDL-inflammatory index: HDL from treated apoE null mice tested in human aortic endothelial cell cultures
# Assay type: in vivo
# Text: 11-month-old female apoE null mice were fasted during the day. At night the mice were provided chow containing or not containing additions. In the first experiment the mice were given chow alone (C) or chow supplemented with 8.0 micrograms of Niclosamide (2′,5-Dichloro-4′-nitrosalicylanilide; Niclosamide, Sigma catalog number N-3510 Page 1711 2006-2007 catalog Empirical Formula (Hill Notation): C13H8C12N2O4 Formula Weight: 327.12, CAS Number: 50-65-7 Batch 105K0666 EC 200-056-8) per gram of chow (D) or chow supplemented with 2.0 micrograms of L-4F (free base) per gram of chow (E), or chow supplemented with 8.0 micrograms of Niclosamide together with 2.0 micrograms of L-4F (free base) per gram of chow (F). The mice were only given one gram of chow per mouse (n=8 mice per group) so that they would consume all of the chow. In the morning after the chow was consumed the mice were bled and their plasma was sucrose cryopreserved and fractionated by FPLC and the HDL-containing fractions were tested for their ability to inhibit monocyte chemotactic activity induced by a standard control human LDL (A) in cultures of human aortic endothelial cells. The mouse HDL (C-J) was also compared to a standard human HDL (B) that was added at the same concentrations as the mouse HDL. The resulting monocyte chemotactic activity was normalized to the standard control LDL added alone (A). The results are plotted as the HDL-inflammatory index, which is the result of dividing the monocyte chemotactic activity measured for each condition by the monocyte chemotactic activity obtained by the standard control LDL added alone, which was normalized to 1.0 as described previously (Navab et al. (2004) J Lipid Res, 45: 993-1007).
# A second experiment was performed as described for the first experiment with 8 mice in each group except that the additions to the chow were different. […]
structure (smiles),measurement,setting,value
"O=C(Nc1ccc([N+](=O)[O-])cc1Cl)c1cc(Cl)ccc1O [Niclosamide, 5-chloro-N-(2-chloro-4-nitrophenyl)-2-hydroxybenzamide, reference compound]",HDL-inflammatory index,"FIG. 8, female apoE null mice, additions to 1 g chow overnight: L-4F 2 or 10 μg, Niclosamide 8 or 100 μg",ineffective
same,"HDL-inflammatory index, salicylanilide without peptides","FIG. 24, administered without the peptides",neither niclosamide nor the new salicylanilides were anti-inflammatory
same,HDL-inflammatory index,"FIG. 37, fractions containing 10 μg L-4F or 10 μg niclosamide in ABCT by stomach tube, six hours",neither niclosamide alone nor L-4F alone (12KS) significantly improved
